# Binding of CDR-mutated scFvs to a peptide of the spike HR2 region

Reference: Li et al. 2023, doi:10.1038/s41467-023-39022-2. File: FLAb, binding data.

Target peptide (SARS-CoV-2 spike, HR2 region): PDVDLGDISGINAS

Ab-14 is the parent antibody, in scFv form: VH, then the linker GGGGSGGGGSGGGGS, then VL. The heavy chain is unchanged in all variants.
VH: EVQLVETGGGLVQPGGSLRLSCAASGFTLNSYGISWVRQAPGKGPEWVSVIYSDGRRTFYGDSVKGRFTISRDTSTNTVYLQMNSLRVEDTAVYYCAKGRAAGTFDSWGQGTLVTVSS
VL: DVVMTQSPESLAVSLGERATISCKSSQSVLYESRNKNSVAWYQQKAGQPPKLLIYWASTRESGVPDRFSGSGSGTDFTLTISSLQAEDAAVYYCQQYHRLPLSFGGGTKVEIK

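The parent was found by panning a naive human phage display library on the peptide. Designed CDR sequences, proposed from the first random library and measured here. Several design methods are mixed in this list. Affinity was read by AlphaSeq, a pooled yeast mating assay with surface-displayed partners. Binding brings cells together so that they mate, and sequencing counts the barcode pairs among the diploids. Each replicate has its own calibration line, from reference interactions of the BCL2 family. Mating was done six times.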

Each variant is given by its three light chain CDRs, as the data file delimits them; those of the parent are KSSQSVLYESRNKNSVA, WASTRES, QQYHRLPLS.
Variants here have at most six changes.
The Kd shown is the geometric mean over detected replicates; a lower Kd is a better binder.
"nd" marks a missing value. The strain was present, yet no cells mated with the target were sequenced in any replicate, which points to weak or no binding.
The parent sequence was in this pool as ten entries: three were never detected, three once, and four in most replicates, with averages from 2.2 nM to 240 nM.
Empty control strains, which show no peptide, gave a signal in 4% of pairings with all light chain designs; the median was 430 nM and 95% of these signals were weaker than 38 nM. No background was subtracted. The control count says in how many pairings with the empty strains this scFv gave a signal.
The authors averaged sequences with at least three values out of six and counted those with two or fewer as poor binders.
The range of this assay differs from that of the first round, and the authors advise against merging the two.

The variant KTSISVLYNSRNKNGVA / WASTRES / QQYHRLPLS gave nd (0 of 6 replicates; controls 0 of 18). For KVSQSVLYESRDKNSVA / DASTRCS / QQYHRLPLE, the assay gave 2.4 nM (6 of 6 replicates; controls 0 of 18). For KSLQSWLYESRDKNSVA / HASTRED / QQYHRLPLS, the assay gave nd (0 of 6 replicates; controls 1 of 18). With KLSQSVLYESRNKWSVA / EASTRES / QQYHRLPLS the result was 1.1 nM (6 of 6 replicates; controls 2 of 18). The variant KGSFSYLLESRNKNSVA / EASTRES / QQYHRLPLS gave 820 pM (6 of 6 replicates; controls 2 of 18). For KLQQSWLYESRNKNSVA / QASQRES / QQYHRLPLS, the assay gave 1.0 nM (6 of 6 replicates; controls 2 of 18). The variant KLSQSVEYESRNKNSVA / DASTRES / QQYHRLPLS showed 350 pM (6 of 6 replicates; controls 0 of 18). The variant KASQSVLYESRNKNSVA / GASTRES / QQYHRLPLS gave 3.3 nM (6 of 6 replicates; controls 1 of 18). With KLSQSPLYESRNKNSVA / NASQRES / QQYHRLPLS the result was 1.7 nM (6 of 6 replicates; controls 1 of 18).

For KLSQSVLYESRNKNSVA / KASTRES / QQYHRLPLF, the assay gave 820 pM (6 of 6 replicates; controls 1 of 18). The variant KMQQSELYESRNKNSVA / NASTRES / QQYHRLPLS showed 1.0 nM (6 of 6 replicates; controls 0 of 18). The variant KLSQSVLYESRNKNSVA / NASTRMQ / QQYHRLPLS showed 1.1 nM (6 of 6 replicates; controls 0 of 18). The variant KSSQSVLYEGRNKNSVA / WASTRCS / QDYHRDPLS gave nd (0 of 6 replicates; controls 0 of 18). The variant KSLQSVLYESRNKNPVA / HAKTRED / QQYARLPLS showed 24 nM (6 of 6 replicates; controls 1 of 18). For KVSFSVLLESRNKNSVA / EASTRES / QQYHRLPLS, the assay gave 9.7 nM (5 of 6 replicates; controls 0 of 18). The variant KVSQSWLYESRNKNSVA / GASTREN / QQYHRLPLS showed 2.3 nM (6 of 6 replicates; controls 0 of 18). With KSSQSVLYESRNKNSVA / QASTREV / QQYHRLPLG the result was 6.4 nM (6 of 6 replicates; controls 1 of 18). With KPPQSVLYEQRNKNSVA / WASTRES / QQYHRLPLS the result was 100 nM (2 of 6 replicates; controls 0 of 18).

For KLSQSGLYESRNKNSVA / NASTREQ / QQYHRLPLS, the assay gave 400 pM (6 of 6 replicates; controls 0 of 18). For HWSPSVLYESRNGNSVA / NASTRES / QQYHRLPLS, the assay gave 2.4 nM (6 of 6 replicates; controls 0 of 18). For KSSQSWLYESRNKNSVA / GASTREW / QQYHRLPLS, the assay gave 8.6 nM (6 of 6 replicates; controls 0 of 18). For KLDGSTLYESRNPNSVA / WASTRES / QQYHRLPLS, the assay gave 790 pM (6 of 6 replicates; controls 1 of 18). The variant KVYPSELYESRNKNSVA / QASTRES / QQYHRLPLS showed 550 pM (6 of 6 replicates; controls 0 of 18). With KLSQSVLYEERNKNSVA / EASTRLS / QQYHRLPLS the result was 2.6 nM (6 of 6 replicates; controls 0 of 18). The variant KLRQSTKYESRNQNSVA / WASTRMS / QQYHRLPLS gave 12 nM (6 of 6 replicates; controls 3 of 18). For KLSQSDLYESRNSNNVA / EASTRES / QQYHRLPLS, the assay gave 1.2 nM (6 of 6 replicates; controls 0 of 18). The variant KSSISDLGESRNKNSVA / EASTRES / QQYHRLPLS gave 980 pM (6 of 6 replicates; controls 1 of 18).

For KCSQSVLYESRNKHSVA / WASTRNA / QQYHRLPLS, the assay gave nd (0 of 6 replicates; controls 0 of 18). The variant KLSWSVLYESGNKNSVA / HASTRED / QQYHRLPLS gave 1.1 nM (6 of 6 replicates; controls 1 of 18). With KSSPSVLLECRNKNQVA / WASTRES / QQYHRLPLS the result was nd (0 of 6 replicates; controls 0 of 18). The variant KFSQSFLYESRNKNSVA / GASTRES / QEYHRLPLS showed 1.8 nM (6 of 6 replicates; controls 1 of 18). With KSSQSVLYESRMKNSVA / WASKRES / QQYHRWPLS the result was nd (0 of 6 replicates; controls 0 of 18). The variant KLPQSWLYESRNKNSVA / NASTRMS / QQYHRLPLS gave 810 pM (6 of 6 replicates; controls 1 of 18). The variant KSSQSVLIESRNKNSVA / WASTREN / QQYHRLPLS gave 130 nM (6 of 6 replicates; controls 1 of 18). For KSSISYLGESRNKNSVA / AASTRES / QQYHRLPLS, the assay gave 790 pM (6 of 6 replicates; controls 1 of 18). The variant KSSHSGLYETRNKNSVA / WASTREV / QAYHRLPLS gave nd (0 of 6 replicates; controls 0 of 18).

The variant KSSQKVLYEERNDNSVA / QASTREY / QQYHRLPLS gave 33 nM (6 of 6 replicates; controls 0 of 18). The variant KSSQSELGESRNKNSVA / DASTRES / QQYWRLPLS gave 800 pM (6 of 6 replicates; controls 1 of 18). The variant KSSQSVLYESRNKNSMA / WASTRES / QQYHRLPLS showed 52 nM (5 of 6 replicates; controls 0 of 18). For HSSQSVLYENRNKDSVA / GASTRES / QQYHRLPLS, the assay gave 4.5 nM (6 of 6 replicates; controls 0 of 18). For NSSPSVLYESRNKNSVA / WASTRES / QQYHRLPLI, the assay gave 53 nM (2 of 6 replicates; controls 0 of 18). The variant KVSQGFLYEERQKNSVA / NASTRES / QQYHRLPLS gave 920 pM (6 of 6 replicates; controls 1 of 18). For KSSIMYLYESHNKNSVA / EASTRES / QQYHRLPLS, the assay gave 1.8 nM (6 of 6 replicates; controls 0 of 18). With KQSQEKLYESRNKNNVA / DASTRES / QQYHRLPLS the result was 1.2 nM (6 of 6 replicates; controls 0 of 18). The variant KMSWSVLYESRNKNSVA / WASTRES / QQYGRLPLS gave 5.5 nM (4 of 6 replicates; controls 0 of 18).

The variant KSSWSVLYESGNKNSVA / HASTRMD / QQYHRLPLS gave 3.1 nM (6 of 6 replicates; controls 1 of 18).

Extract of 6 entries:

For KSLQSWLYESRDKNSVA / HASTRED / QQYHRLPLS, the assay gave nd (0 of 6 replicates; controls 1 of 18).
For KSSISYLGESRNKNSVA / AASTRES / QQYHRLPLS, the assay gave 790 pM (6 of 6 replicates; controls 1 of 18).
For KMSWSVLYESRNKNSVA / WASTRES / QQYGRLPLS, the assay gave 5.5 nM (4 of 6 replicates; controls 0 of 18).
For KLSWSVLYESGNKNSVA / HASTRED / QQYHRLPLS, the assay gave 1.1 nM (6 of 6 replicates; controls 1 of 18).
For KLQQSWLYESRNKNSVA / QASQRES / QQYHRLPLS, the assay gave 1.0 nM (6 of 6 replicates; controls 2 of 18).
For KVSQSVLYESRDKNSVA / DASTRCS / QQYHRLPLE, the assay gave 2.4 nM (6 of 6 replicates; controls 0 of 18).